Data: paper PMC10762035, “Molecular basis of human trace amine-associated receptor 1 activation” (Nature Communications, 2024)

Legend:
[1] = target: T1, hTA1 I290Y (Homo sapiens, UniProt Q96RJ0, I290Y); experiment: GloSensor cAMP accumulation assay, I290Y mutant; assay type: cell-based; conditions: hTA1 I290Y (N=3), log[Compound];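 further: normalized to the maximum response of β-PEA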
T1 construct: expressed in transfected cells; host or cells: HEK293T
T1 sequence (Q96RJ0 1-339 I290Y): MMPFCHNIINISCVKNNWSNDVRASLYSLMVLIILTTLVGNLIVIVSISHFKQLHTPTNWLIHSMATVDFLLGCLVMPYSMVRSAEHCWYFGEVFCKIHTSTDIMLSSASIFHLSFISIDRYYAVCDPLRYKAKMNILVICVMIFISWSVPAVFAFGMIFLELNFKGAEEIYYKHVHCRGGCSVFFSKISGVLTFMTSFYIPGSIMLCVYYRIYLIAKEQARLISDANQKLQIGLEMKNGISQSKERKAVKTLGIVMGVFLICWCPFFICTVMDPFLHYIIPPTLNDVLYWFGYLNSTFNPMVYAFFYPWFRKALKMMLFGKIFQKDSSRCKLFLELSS

[2] = target: T2, hTA1 (Homo sapiens, UniProt Q96RJ0); experiment: Screen of 89 aminergic compounds at 10 µM, cAMP accumulation in HEK293T cells; assay type: cell-based; set-up: expressed in transfected cells; host or cells: HEK293T;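 further: HEK293T cells co-transfected with hTA1 and GloSensor cAMP reporter, cAMP accumulation detected by luminescence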
T2 sequence (Q96RJ0 1-339): T1 sequence (Q96RJ0 1-339 I290Y) with Y290I

| Compound | cAMP accumulation response, normalized (concentration-response source data, single replicate values) ([1]; M = -8.522) | cAMP accumulation response, normalized (concentration-response source data, single replicate values) ([1]; M = -10) | increase of signal over DMSO-treated controls (hTA1 activation) [2] [fold] |
| --- | --- | --- | --- |
| NCCc1ccc(O)cc1 [TYR, tyramine] | -1.842 | -1.842 |  |
| CCCN1CCC[C@@H]2Cc3n[nH]cc3C[C@H]21 [quinpirole] |  |  | ≥ 4 |

Substitutions are numbered along the chain they refer to.
